Assay results from US12312347B2, “Azaindole derivative and use thereof as FGFR and C-Met inhibitor” (Wuxi Life Fountain Biotech Co., Ltd, priority 2018, dated 2025).
Read-outs that look alike come from different tables or passages of the source.

Sequences of proteins named here, by UniProt entry; tags and fusion partners are left off. Residues count along the entry.
UniProt P08581, 25-1390 limits assumed: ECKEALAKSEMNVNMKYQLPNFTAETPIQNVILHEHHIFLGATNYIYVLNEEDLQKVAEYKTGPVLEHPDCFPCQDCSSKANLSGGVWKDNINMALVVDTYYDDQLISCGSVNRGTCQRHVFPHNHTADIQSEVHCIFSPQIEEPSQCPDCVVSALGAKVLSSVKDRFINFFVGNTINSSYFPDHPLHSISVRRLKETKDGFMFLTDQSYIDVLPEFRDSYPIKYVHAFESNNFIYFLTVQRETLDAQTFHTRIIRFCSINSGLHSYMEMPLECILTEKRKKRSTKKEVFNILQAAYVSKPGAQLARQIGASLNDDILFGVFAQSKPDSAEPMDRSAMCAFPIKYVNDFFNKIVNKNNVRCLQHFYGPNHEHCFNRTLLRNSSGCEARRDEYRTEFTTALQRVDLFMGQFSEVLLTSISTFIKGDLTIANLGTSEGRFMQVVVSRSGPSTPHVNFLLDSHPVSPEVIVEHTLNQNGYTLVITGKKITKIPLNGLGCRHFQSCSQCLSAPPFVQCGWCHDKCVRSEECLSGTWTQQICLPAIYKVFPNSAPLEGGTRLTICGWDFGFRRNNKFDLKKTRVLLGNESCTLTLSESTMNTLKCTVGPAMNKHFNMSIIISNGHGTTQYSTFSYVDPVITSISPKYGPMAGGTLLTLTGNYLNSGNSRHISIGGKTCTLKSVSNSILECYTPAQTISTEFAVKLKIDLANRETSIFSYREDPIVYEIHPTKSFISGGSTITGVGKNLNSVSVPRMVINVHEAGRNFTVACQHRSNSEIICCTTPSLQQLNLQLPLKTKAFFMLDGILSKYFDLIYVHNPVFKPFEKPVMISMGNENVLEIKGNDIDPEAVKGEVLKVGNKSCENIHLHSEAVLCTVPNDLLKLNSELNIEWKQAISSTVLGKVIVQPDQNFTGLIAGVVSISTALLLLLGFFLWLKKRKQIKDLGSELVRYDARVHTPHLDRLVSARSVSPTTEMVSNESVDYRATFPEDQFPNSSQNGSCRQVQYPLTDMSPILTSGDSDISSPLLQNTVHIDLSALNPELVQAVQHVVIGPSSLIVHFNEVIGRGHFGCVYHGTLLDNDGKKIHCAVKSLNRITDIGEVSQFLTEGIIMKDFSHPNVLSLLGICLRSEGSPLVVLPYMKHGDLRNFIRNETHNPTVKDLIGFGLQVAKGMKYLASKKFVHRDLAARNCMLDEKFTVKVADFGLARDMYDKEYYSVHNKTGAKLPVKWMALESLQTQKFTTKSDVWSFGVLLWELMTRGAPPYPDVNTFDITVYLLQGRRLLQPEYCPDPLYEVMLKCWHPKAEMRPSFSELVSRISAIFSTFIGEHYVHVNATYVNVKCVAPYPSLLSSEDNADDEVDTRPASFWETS
UniProt P22455, 22-802 limits assumed: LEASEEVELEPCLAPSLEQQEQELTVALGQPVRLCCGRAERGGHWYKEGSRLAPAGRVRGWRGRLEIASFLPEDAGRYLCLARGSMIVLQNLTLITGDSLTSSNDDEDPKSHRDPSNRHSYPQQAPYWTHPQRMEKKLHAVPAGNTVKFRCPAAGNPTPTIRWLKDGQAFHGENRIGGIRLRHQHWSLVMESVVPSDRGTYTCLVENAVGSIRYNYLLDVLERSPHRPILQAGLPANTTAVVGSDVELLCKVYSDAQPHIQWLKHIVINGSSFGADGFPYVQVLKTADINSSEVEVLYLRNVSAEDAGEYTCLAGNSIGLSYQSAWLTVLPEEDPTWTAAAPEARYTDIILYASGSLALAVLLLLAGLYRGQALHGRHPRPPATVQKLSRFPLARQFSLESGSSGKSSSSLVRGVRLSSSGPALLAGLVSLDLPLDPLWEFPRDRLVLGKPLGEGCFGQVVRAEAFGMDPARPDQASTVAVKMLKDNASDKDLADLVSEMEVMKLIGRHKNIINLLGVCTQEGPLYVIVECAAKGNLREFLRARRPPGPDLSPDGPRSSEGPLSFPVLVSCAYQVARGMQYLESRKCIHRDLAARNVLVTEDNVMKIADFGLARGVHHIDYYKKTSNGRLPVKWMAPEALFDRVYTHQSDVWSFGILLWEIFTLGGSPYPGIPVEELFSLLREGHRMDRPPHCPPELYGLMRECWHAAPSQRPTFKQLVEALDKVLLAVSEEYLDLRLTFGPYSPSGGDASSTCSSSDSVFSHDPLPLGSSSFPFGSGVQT
UniProt P11362, 22-822 limits assumed: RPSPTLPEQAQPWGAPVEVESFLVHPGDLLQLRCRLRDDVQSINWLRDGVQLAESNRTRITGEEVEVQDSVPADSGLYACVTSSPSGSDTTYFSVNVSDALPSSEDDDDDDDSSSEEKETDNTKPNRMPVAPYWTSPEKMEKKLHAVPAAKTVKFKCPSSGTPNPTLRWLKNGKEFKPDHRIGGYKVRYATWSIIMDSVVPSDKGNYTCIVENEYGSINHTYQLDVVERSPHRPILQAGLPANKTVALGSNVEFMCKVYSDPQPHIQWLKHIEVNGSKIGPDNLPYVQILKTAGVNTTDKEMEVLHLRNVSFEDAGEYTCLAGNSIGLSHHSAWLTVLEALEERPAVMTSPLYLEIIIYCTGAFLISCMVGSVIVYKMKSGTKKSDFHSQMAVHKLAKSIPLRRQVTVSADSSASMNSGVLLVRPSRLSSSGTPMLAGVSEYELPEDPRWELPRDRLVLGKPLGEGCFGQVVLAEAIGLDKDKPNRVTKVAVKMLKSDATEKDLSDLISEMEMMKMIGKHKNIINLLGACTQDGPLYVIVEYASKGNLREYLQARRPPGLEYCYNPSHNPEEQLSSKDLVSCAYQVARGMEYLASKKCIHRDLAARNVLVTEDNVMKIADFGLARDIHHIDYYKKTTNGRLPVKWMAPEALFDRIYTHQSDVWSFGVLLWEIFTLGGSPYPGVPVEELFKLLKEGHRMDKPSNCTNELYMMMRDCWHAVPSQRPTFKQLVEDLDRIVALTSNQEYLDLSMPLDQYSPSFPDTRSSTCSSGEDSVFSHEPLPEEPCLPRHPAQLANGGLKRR

Assays:
[1] = molecular target: human c-Met (Homo sapiens, UniProt P08581); test: 33P isotope-labeled kinase activity test, c-Met; details: read-out: IC50 c-Met, ATP 10 μM
[2] = molecular target: human FGFR4 (Homo sapiens, UniProt P22455); test: 33P isotope-labeled kinase activity test, FGFR4; details: read-out: IC50 FGFR4, ATP 100 μM
[3] = molecular target: human FGFR1 (Homo sapiens, UniProt P11362); test: 33P isotope-labeled kinase activity test, FGFR1; assay type: biochemical; details: read-out: IC50 FGFR1, ATP 5 μM

IC50 ([1]; tested form: HCl) [nM] | IC50 ([2]; tested form: HCl) [nM] | IC50 ([3]; tested form: HCl) [nM] | IC50 [1] [nM] | IC50 [2] [nM] | IC50 [3] [nM] | SMILES
58.9 | 25.2 | 1.2 | – | – | – | COc1cc(OC)c(F)c(Cc2c[nH]c3ncc(-c4cn(CCO)nc4C)cc23)c1F
– | – | – | 7.4 | 20.8 | 0.55 | COc1cc(OC)c(F)c(Cc2c[nH]c3ncc(-c4cnn(C5CCNCC5)c4C)cc23)c1F
